Results taken from article PMC9774897 (Antibiotics, 2022).

Tested on: human red blood cells
Assay: Red blood cell hemolytic assay
Conditions: even at a low concentration (range 15.6–1000 µg/mL)

**Q.** Which hemolysis does the source give for `CC[C@H](C)[C@H](NC(=O)CN)C(=O)NCC(=O)N[C@@H](C)C(=O)N[C@H](C(=O)N[C@@H](CC(C)C)C(=O)N[C@@H](CCCCN)C(=O)N[C@H](C(=O)N[C@@H](CC(C)C)C(=O)N[C@H](C(=O)N[C@H](C(=O)NCC(=O)N[C@@H](CC(C)C)C(=O)N1CCC[C@H]1C(=O)N[C@@H](C)C(=O)N[C@@H](CC(C)C)C(=O)N[C@H](C(=O)N[C@@H](CO)C(=O)N[C@@H](Cc1c[nH]c2ccccc12)C(=O)N[C@H](C(=O)N[C@@H](CCCCN)C(=O)N[C@@H](CCCNC(=N)N)C(=O)N[C@@H](CCCCN)C(=O)N[C@@H](CCCNC(=N)N)C(=O)N[C@@H](CCC(N)=O)C(=O)N[C@@H](CCC(N)=O)C(N)=O)[C@@H](C)CC)[C@@H](C)CC)[C@@H](C)O)[C@@H](C)O)C(C)C)C(C)C` [AM-mel] here?
**A.** complete hemolysis
